Laboratory results: ChEMBL document CHEMBL2203054, “Synthesis and biological evaluation of a selective N- and p/q-type calcium channel agonist” (ACS Med Chem Lett, 2012)

Protein sequences, listed by entry. Tags and fused reporters are not part of them.
UniProt Q00975, whole entry: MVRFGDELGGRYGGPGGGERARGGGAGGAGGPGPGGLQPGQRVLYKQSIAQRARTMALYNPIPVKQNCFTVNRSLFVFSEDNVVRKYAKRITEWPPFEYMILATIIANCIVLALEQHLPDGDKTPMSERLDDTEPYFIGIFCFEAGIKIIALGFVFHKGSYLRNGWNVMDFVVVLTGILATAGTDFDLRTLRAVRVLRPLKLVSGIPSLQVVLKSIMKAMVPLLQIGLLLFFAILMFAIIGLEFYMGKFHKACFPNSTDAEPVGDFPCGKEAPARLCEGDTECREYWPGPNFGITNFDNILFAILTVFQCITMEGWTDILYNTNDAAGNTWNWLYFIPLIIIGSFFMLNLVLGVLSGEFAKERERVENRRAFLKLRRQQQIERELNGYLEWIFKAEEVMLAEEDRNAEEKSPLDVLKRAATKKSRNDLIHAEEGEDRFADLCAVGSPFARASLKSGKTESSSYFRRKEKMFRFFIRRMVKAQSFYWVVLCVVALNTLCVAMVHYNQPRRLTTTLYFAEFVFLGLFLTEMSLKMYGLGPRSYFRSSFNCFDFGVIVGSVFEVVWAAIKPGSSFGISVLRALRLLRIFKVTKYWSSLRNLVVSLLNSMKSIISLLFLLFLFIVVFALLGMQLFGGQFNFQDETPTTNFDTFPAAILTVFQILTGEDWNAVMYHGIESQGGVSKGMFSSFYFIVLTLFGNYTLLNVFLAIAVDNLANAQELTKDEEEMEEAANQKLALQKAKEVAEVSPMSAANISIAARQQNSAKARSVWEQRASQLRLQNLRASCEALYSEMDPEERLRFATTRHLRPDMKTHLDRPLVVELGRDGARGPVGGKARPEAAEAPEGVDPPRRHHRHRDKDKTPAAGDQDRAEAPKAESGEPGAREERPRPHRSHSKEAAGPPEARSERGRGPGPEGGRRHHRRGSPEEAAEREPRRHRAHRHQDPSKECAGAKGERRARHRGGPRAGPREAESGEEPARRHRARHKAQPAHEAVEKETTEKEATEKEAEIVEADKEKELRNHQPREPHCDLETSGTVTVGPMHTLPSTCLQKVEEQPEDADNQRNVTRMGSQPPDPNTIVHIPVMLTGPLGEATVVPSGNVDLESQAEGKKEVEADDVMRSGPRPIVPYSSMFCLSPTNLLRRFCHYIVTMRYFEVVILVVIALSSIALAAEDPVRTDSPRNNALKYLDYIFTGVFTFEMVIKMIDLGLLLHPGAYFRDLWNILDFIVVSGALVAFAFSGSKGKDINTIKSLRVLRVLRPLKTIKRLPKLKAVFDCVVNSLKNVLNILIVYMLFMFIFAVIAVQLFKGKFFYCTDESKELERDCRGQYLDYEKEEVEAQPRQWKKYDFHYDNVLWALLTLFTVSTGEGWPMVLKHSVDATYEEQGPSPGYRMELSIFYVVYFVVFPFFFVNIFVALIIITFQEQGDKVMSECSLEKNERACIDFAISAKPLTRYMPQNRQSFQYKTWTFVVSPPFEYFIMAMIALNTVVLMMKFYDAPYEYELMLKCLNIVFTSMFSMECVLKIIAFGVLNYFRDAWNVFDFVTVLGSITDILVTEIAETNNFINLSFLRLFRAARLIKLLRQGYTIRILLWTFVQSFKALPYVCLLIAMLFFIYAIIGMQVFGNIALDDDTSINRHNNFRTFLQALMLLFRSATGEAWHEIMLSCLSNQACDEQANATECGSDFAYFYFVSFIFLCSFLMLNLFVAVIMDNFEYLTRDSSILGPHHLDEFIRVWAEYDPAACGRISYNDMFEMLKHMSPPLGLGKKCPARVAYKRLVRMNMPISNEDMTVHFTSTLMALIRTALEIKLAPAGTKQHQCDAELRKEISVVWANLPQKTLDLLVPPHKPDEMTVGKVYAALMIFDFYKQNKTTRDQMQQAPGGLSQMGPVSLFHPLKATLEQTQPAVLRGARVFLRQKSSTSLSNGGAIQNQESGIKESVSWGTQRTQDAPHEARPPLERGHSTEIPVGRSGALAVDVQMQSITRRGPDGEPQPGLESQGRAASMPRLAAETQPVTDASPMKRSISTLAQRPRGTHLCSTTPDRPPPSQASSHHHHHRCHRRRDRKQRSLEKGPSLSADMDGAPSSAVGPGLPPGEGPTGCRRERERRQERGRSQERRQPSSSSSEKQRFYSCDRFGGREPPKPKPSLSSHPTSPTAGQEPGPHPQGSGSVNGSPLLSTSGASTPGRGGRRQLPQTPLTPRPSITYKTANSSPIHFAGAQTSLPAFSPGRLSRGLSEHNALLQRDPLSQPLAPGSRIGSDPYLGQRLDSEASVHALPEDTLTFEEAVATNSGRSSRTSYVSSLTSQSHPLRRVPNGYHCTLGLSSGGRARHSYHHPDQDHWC

Molecular target: Voltage-dependent N-type calcium channel subunit alpha-1B (Homo sapiens, UniProt Q00975)
Assay: Agonist activity at N-type Cav2.2 channel expressed in tsA201 cell assessed as calcium current by whole-cell patch clamp method
Type: functional, cell-based

CC[C@@H](CO)Nc1nc(NCc2ccccc2)c2ncn(C(C)C)c2n1 [(S)-ROSCOVITINE]
EC50: 570 µM
